US20220401514A1, “ANTIMICROBIAL, BACTERIOPHAGE-DERIVED POLYPEPTIDES AND THEIR USE AGAINST GRAM-NEGATIVE AND ACID-FAST BACTERIA” (CONTRAFECT CORPORATION, priority 2019, published 2022)

How the values were obtained:
[1] = tested on: Acinetobacter baumannii strain 30; experiment: Checkerboard assay (FICI) with antibiotics, A. baumannii
[2] = tested on: P. aeruginosa strain CFS-1292; experiment: Checkerboard assay (FICI) with antibiotics, P. aeruginosa; conditions: P. aeruginosa CFS-1292, CAA + […] human serum
[3] = tested on: Klebsiella pneumoniae strain 1139; experiment: Checkerboard assay (FICI) with antibiotics, K. pneumoniae
[4] = checkerboard, in combination with Unp2-M1

Compound | Antibiotic MIC ([1]; in combination with Chp2) [µg/mL] | Antibiotic MIC ([1]; in combination with Chp2-M1) [µg/mL] | Antibiotic MIC ([1]; in combination with Chp4-M1) [µg/mL] | Antibiotic MIC ([1]; in combination with Chp6-M1) [µg/mL] | Antibiotic MIC ([1]; in combination with Chp10-M1) [µg/mL] | Antibiotic MIC ([1]; in combination with Unp2-M1) [µg/mL] | Antibiotic MIC in checkerboard ([2]; combined with Chp2-M1) [µg/mL] | Antibiotic MIC in checkerboard ([2]; combined with Chp2) [µg/mL] | Antibiotic MIC in checkerboard ([2]; combined with Chp4-M1) [µg/mL] | Antibiotic MIC in checkerboard ([2]; combined with Chp6-M1) [µg/mL] | Antibiotic MIC in checkerboard ([2]; combined with Chp10-M1) [µg/mL] | Antibiotic MIC in checkerboard ([2]; combined with Unp2-M1) [µg/mL] | Antibiotic MIC ([3]; checkerboard, in combination with Chp4-M1) [µg/mL] | Antibiotic MIC ([3]; checkerboard, in combination with Chp6-M1) [µg/mL] | Antibiotic MIC ([3]; checkerboard, in combination with Chp10-M1) [µg/mL] | Antibiotic FIC [3, 4] | Antibiotic MIC [3, 4] [µg/mL] | Antibiotic MIC in checkerboard ([3]; combined with Chp2) [µg/mL] | Antibiotic MIC in checkerboard ([3]; combined with Chp2-M1) [µg/mL] | Antibiotic FIC ([1]; in combination with Chp2)
C[C@H]1COc2c(N3CCN(C)CC3)c(F)cc3c(=O)c(C(=O)O)cn1c23 [Levofloxacin] | 0.03125 | 0.03125 | 0.03125 | 0.0625 | 0.0625 | 0.0625 | – | – | – | – | – | – | – | – | – | – | – | – | – | –
CC[C@H]1OC(=O)[C@H](C)[C@@H](O[C@H]2C[C@@](C)(OC)[C@@H](O)[C@H](C)O2)[C@H](C)[C@@H](O[C@@H]2O[C@H](C)C[C@H](N(C)C)[C@H]2O)[C@](C)(O)C[C@@H](C)CN(C)[C@H](C)[C@@H](O)[C@]1(C)O [Azithromycin] | – | – | – | – | – | – | 8 | 16 | 16 | 16 | 8 | 8 | – | – | – | – | – | – | – | –
C[C@@H](O)[C@H]1C(=O)N2C(C(=O)O)=C(SCCN=CN)C[C@H]12 [Imipenem] | 0.5 | – | – | – | – | 0.25 | – | – | – | – | – | – | 0.0625 | 0.0625 | 0.0625 | 0.0625 | 0.0625 | 0.0625 | 0.0625 | 0.5
